The values below come from patent US20260209350A1.

This assay deals with T1, recombinant human TREM2-DAP12 fusion protein on cells (human) (UniProt Q9NZC2).
T1 sequence: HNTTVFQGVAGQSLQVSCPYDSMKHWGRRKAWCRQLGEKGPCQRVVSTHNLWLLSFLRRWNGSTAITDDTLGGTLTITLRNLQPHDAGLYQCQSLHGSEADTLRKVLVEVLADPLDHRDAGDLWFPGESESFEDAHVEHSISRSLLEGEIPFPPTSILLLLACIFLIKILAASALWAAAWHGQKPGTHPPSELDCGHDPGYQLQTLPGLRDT
The assay can be described thus: FACS, hTrem2 cells. For orientation: A flow cytometer gives signals particle by particle.

B1: Ab79 (antibody, human IgG1, V domains shown)
VH: EVQLVESGGGLVQPGGSLRLSCAASGFTFSSYSMNWVRQAPGKGLEWVSYISGSSSTIYYADSVKGRFTISRDNAKNSLYLQMNSLRAEDTAVYYCARGGRRHYGGMDVWGQGTTVTVSS
VL: DIVMTQSPLSLPVTPGEPASISCRSSQSLLHSNGYNYLDWYLQKPGQSPQLLIYLGSHRASGVPDRFSGSGSGTDFTLKISRVEAEDVGVYYCMQALESPRTFGGGTKVEIK
In the case of B1, the MFI is 900 MFI.
